# Test results: paper PMC10258805, “Nonpeptidic Oxazole-Based Prolyl Oligopeptidase Ligands with Disease-Modifying Effects on α-Synuclein Mouse Models of Parkinson’s Disease” (Journal of Medicinal Chemistry, 2023)
# Key:
# [1] = LC-MS detection of HUP-55 in the mouse brain; settings: C57BL/6JRccHsd, in vivo, ip, 10 mg/kg
# [2] = Stability studies (NMR, MS, polarimetry, long-term monitoring); settings: over time; ca 5 years of storage at -18°C (Table S1)
smiles,measurement,setting,value
"Cc1nc(CCCc2ccccc2)oc1N1CCC[C@H]1C#N [HUP-55, (S)-1-(4-Methyl-2-(3-phenylpropyl)oxazol-5-yl)pyrrolidine-2-carbonitrile]",concentration at 15 min,[1],1860 nM
same,concentration at 30 min,[1],1110 nM
same,configurational stability (racemization),[2],no racemization was observed
